Test results published in ChEMBL document CHEMBL2321744 (J Med Chem, 2013).

Chains of the proteins cited; added tags and fusions are not shown. Lines headed by an entry give the natural chain unless they say otherwise; changes in a name come on top.
UniProt P41145: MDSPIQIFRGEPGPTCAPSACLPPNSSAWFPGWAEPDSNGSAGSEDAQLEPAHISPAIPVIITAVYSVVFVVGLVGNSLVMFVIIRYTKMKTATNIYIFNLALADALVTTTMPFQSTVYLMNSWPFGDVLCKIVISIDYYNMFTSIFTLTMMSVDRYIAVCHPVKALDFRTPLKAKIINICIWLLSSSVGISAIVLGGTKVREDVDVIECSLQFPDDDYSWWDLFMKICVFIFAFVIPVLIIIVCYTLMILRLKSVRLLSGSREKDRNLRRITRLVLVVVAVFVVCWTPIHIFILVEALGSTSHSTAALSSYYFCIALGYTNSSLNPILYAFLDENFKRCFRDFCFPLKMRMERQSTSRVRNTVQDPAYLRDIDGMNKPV
UniProt P35372, whole entry, looked up: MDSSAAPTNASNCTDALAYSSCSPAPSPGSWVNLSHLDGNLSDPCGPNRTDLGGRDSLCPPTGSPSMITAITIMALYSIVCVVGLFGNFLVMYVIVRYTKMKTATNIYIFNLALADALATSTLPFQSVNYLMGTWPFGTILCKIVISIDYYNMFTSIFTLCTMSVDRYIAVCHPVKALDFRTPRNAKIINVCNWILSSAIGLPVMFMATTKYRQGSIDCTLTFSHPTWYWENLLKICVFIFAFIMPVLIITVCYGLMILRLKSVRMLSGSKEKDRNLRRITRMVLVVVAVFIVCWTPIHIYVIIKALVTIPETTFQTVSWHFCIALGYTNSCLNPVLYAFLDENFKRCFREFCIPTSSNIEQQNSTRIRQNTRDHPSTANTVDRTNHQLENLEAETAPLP

What was measured:
[1] = target: Kappa-type opioid receptor (Homo sapiens) (UniProt P41145); test: Agonist activity at human KOP receptor
[2] = target: Mu-type opioid receptor (Homo sapiens) (UniProt P35372); test: Agonist activity at human MOP receptor
[3] = target: Mu-type opioid receptor (Homo sapiens) (UniProt P35372); test: Inhibition of human MOP receptor at 10 uM by radioligand binding assay
[4] = target: Kappa-type opioid receptor (Homo sapiens) (UniProt P41145); test: Inhibition of human KOP receptor at 10 uM by radioligand binding assay

Row | Compound | Activity [1] | Activity [2] | inhibition [3] [%] | inhibition [4] [%]
1 | O=C(NCCN1CCC2(CC1)C(=O)NCN2c1cccc(F)c1)c1ccc(F)c(F)c1 | inactive | inactive |  | 
2 | Cc1cccc(N2CNC(=O)C23CCN(C[C@H](C)NC(=O)c2ccc(Br)cc2)CC3)c1 | inactive | inactive | > 50 | > 50

Activity calls are given as the source filed them. The calls are words filed in the database; no cut-off is given here.
